AlphaSeq binding of Ab-95 light chain variants to a spike HR2 peptide

Source: Engelhart et al. 2022 (doi:10.1038/s41597-022-01779-4), MIT Lincoln Laboratory and A-Alpha Bio; data file from the FLAb repository.

The target is the same throughout: PDVDLGDISGINAS, from the HR2 region of SARS-CoV-2 spike.

Parent scFv Ab-95: VH joined to VL by three GGGGS repeats. Changes lie in the light chain CDRs alone.
VH: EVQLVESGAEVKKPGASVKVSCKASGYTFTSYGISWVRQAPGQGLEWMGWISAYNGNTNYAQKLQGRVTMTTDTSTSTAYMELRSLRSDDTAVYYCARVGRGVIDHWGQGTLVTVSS
VL: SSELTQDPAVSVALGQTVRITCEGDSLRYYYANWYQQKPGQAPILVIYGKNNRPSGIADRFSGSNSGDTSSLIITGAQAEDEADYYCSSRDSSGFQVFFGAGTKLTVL

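Phage display of a naive human antibody library on the peptide gave the parent. Library AAYL52 holds single substitutions and randomly drawn double and triple substitutions in the CDRs. Affinity was read by AlphaSeq, a pooled yeast mating assay with surface-displayed partners. Binding brings cells together so that they mate, and sequencing counts the barcode pairs among the diploids. A regression on co-assayed BCL2-family reference pairs converts the normalised counts of each replicate to an apparent Kd. Mating was done three times.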

Each variant is given by its three light chain CDRs, as the data file delimits them; those of the parent are EGDSLRYYYAN, GKNNRPS, SSRDSSGFQVF. The read-out is the apparent dissociation constant on a log10 scale (nM): the lower, the stronger. Averages over replicates are reported, and they cover detected replicates only. "not detected" marks a missing value. The strain was present, yet no cells mated with the target were sequenced in any replicate, which points to weak or no binding. Order: sorted from the lowest average up, undetected variants last. Empty control strains, which show no peptide, gave a signal in 28% of pairings with library AAYL52; the median was 3.91 and 95% of these signals were weaker than 2.90. No background was subtracted.

CDR-L1 | CDR-L2 | CDR-L3 | mean log10 Kd (nM) | detected
EGVSLRYYQAN | GKNNRPS | SSRDSSGFQVF | 1.42 | 3 of 3
EGDSLRYYKAN | GKENRPS | SYRDSSGFQVF | 1.60 | 3 of 3
QGDSLEYYYAN | GKNNRPS | SARDSSGFQVF | 1.70 | 3 of 3
EGDSLRYYYAN | GKNNRPK | SSRDASGFQIF | 1.96 | 1 of 3
EGDSLRYYYAN | GQNNRPS | SGRDSSGFQVK | 2.08 | 3 of 3
EGDSLRYYYAN | GKNNRPS | SSRDFSGRQVG | 2.46 | 3 of 3
EGDSLRYYNAN | GKHNRKS | SSRDSSGFQVF | 2.57 | 2 of 3
EGDSLHYYYAN | GKNNRAS | SSRDSDGFQVF | 2.62 | 3 of 3
EHDSLRYYYAN | GKNNRPS | SSRYSNGFQVF | 2.62 | 3 of 3
EGDSLRYYYAN | GKGNRPS | SSRDSSGEQVF | 2.76 | 3 of 3
MGDSLRYYYAN | GKNNRCS | SSRDSNGFQVF | 3.08 | 3 of 3
EGDSLRYYYIN | GKNNRPS | SSRRSSGFCVF | 3.23 | 1 of 3
WGDSLRYYTAN | GKNNRPS | SSRDSSGFQVF | 3.26 | 3 of 3
EGDSLRYYYAG | GKNRRPS | SSRDSSGFDVF | 3.45 | 1 of 3
EGDMLRYYYAN | GKNNRPS | WSRDSEGFQVF | 3.56 | 3 of 3
NGDSLRYYYIN | GKNNRPS | SSRDSIGFQVF | 3.60 | 2 of 3
ERDSLRYYYAN | GKNNRPA | SSRDSSGFNVF | 3.67 | 3 of 3
EGDSLCYYYAN | GKNARPS | SSRDMSGFQVF | 3.68 | 2 of 3
EGDSLRYYYAN | GKNNRPS | SSVDSKGFQLF | 3.78 | 2 of 3
EKDSLRHYYAN | GKNLRPS | SSRDSSGFQVF | 3.78 | 3 of 3
EGDSVREYYAN | GKNNRLS | SSRDSSGFQVF | 3.85 | 2 of 3
EGDSLRYYYAL | GKNNRPS | SSRDSFGFQVF | 3.87 | 2 of 3
EEDSLRYYYAN | GKNNRPS | SSRDNSGFQVF | 3.93 | 1 of 3
EWDNLRYYYAN | AKNNRPS | SSRDSSGFQVF | 3.98 | 3 of 3
EHDSIRYYYAN | GKNWRPS | SSRDSSGFQVF | 3.99 | 3 of 3
EGDSLRCYYAN | FKNNRPS | SSRDKSGFQVF | 4.03 | 2 of 3
EGDSMRYYIAN | GKNNWPS | SSRDSSGFQVF | 4.06 | 1 of 3
EGDSLRYYYAN | GKNNNPS | SQRDSSGFQCF | 4.06 | 2 of 3
EGDSLRYYYYN | GKNNRPS | SSRDSSHFQGF | 4.08 | 1 of 3
EGDSLRYYYAN | LKNGRPS | SSTDSSGFQVF | 4.18 | 2 of 3
EGDLLRYYYAN | VPNNRPS | SSRDSSGFQVF | 4.19 | 1 of 3
EGCSLRYYYAT | GKNNRPS | SSRDSSGFQRF | 4.38 | 1 of 3
EGWSLTYYYAN | GKNNRPS | SSRDFSGFQVF | 4.53 | 1 of 3
EGDSLMYYYAH | QKNNRPS | SSRDSSGFQVF | 4.60 | 1 of 3
EGDSLRQYYAN | GKNNRPE | SSRYSSGFQVF | 4.62 | 1 of 3
EGDSLRYYYAN | GKNNRPS | SSQDHSRFQVF | 4.68 | 1 of 3
EGDSLFCYYAY | GKNNRPS | SSRDSSGFQVF | 4.69 | 1 of 3
EGDSLRYYYAN | HKNNRPS | NSRDSSGSQVF | 4.71 | 1 of 3
EGDSLRYYYEN | GKNNRPS | QSRDSSGFQVW | 4.85 | 1 of 3
EGDSLRYYYQN | GKNNRPS | SSRDSSGHEVF | 4.89 | 2 of 3
EGDSLRYEYQN | GRNNRPS | SSRDSSGFQVF | 5.09 | 1 of 3
EGDSLRYYYAN | GKQNAPS | SSRDSMGFQVF | 5.60 | 1 of 3
PGDSLVYYYAN | GKNNRPS | SSRDSSGFQVF | not detected | 0 of 3
EKDSLRYYYAN | GKINRPS | YSRDSSGFQVF | not detected | 0 of 3
EGDSLRYYYAC | GKVNRPS | SSRDSSGFQAF | not detected | 0 of 3
EGDSLRVYYAN | GKNNRPS | SSEDRSGFQVF | not detected | 0 of 3
EGLSLRYYYAN | GKNNRPS | SSYDSSHFQVF | not detected | 0 of 3
EGDSLRYYYAN | GKNNRPS | SSIHCSGFQVF | not detected | 0 of 3